# Reference: patent US9624287B2, “O-linked carbohydrate-modified insulin analogues” (Case Western Reserve University, priority 2012, dated 2017)
# Protein sequences, listed by entry. Tags and fused reporters are not part of them. Residues count along the entry.
# UniProt P08069, 741-1367 partner limits assumed: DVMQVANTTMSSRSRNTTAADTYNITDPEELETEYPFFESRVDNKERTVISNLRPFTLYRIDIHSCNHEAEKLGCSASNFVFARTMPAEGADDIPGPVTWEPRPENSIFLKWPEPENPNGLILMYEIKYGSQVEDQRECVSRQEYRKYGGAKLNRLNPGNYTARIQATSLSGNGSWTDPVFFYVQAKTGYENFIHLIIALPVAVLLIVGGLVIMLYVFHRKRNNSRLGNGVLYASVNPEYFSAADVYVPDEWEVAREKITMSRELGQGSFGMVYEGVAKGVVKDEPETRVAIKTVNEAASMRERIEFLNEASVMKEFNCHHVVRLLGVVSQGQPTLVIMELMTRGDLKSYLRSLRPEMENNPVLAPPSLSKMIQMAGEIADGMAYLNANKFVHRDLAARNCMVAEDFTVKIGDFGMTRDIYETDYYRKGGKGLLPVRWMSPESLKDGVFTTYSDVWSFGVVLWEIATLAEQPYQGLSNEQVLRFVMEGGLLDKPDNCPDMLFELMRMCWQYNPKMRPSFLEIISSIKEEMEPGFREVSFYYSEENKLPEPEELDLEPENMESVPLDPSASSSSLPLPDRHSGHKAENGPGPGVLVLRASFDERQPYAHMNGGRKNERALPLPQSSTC
# UniProt P08069, 31-736 limits assumed: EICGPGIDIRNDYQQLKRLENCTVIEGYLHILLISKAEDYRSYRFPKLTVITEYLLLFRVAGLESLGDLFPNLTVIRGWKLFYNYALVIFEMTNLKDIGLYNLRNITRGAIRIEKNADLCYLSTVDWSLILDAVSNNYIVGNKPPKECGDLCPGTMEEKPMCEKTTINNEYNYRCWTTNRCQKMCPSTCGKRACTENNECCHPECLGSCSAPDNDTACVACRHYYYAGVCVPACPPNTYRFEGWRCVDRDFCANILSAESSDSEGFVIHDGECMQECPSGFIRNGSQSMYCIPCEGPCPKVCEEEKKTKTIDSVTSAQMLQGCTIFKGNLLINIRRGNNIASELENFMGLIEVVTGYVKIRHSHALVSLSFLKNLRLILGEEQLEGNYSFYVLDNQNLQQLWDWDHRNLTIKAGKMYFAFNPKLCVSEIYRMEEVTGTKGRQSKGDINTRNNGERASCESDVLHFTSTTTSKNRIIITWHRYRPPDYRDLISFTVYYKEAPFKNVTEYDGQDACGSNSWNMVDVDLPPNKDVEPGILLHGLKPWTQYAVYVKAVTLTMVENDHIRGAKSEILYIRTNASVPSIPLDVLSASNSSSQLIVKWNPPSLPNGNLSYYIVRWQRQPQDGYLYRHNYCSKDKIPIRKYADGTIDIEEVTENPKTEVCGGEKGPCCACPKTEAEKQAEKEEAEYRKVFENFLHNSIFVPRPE
# What was measured:
# [1] = target: human Type 1 IGF receptor (IGF-1R) (Homo sapiens, UniProt P08069); experiment: competitive displacement receptor-binding assay, IGF-1R; details: Table 1D; different preparation of receptor than in Tables 1A-1C; read-out: Dissociation Constant hIGF-1R
# [2] = guanidine-induced denaturation monitored by circular dichroism; type: physicochemical; details: 25° C.
substance,measurement,setting,value
"α-D-mannopyranoside-O^β-Thr^B27-β-D-glucopyranoside-O^β-Thr^B30-[Glu^B31, Glu^B32]-KP-insulin",Kd,[1],45.9 ± 8.95 nM
same,"ΔGu, free energy of unfolding (two-state model)","[2]; guanidine hydrochloride, pH 7.4, extrapolated to zero denaturant",3.3 ± 0.1 kcal/mol
same,"Cmid, concentration of guanidine-HCl required to unfold 50% of the protein",[2]; pH 7.4,4.8 ± 0.2 M
